Reference: patent US20070059785A1, “Biomarkers in cancer” (SMITHKLINE BEECHAM CORPORATION, priority 2003, published 2007)

What was measured:
[1] = test system: Erk1/2; assay: Western blot of p-Erk1/2 in BT474 cells
[2] = test system: Erk1/2; assay: Western blot of p-Erk1/2 in Hb4a cells; conditions: 10 μg/ml, 72 h
[3] = test system: Erk1/2; assay: Western blot of p-Erk1/2 in HN5 cells

## Herceptin™: humanized anti-erbB2 monoclonal antibody [reference compound]
[1]; BT474, 10 μg/ml, 72 h
  p-Erk1/2 levels compared with untreated controls: little effect
[1]; BT474, 72 h, GW572016 0.5 or 1 μM, Herceptin 10 μg/ml
  total Erk1/2 steady state protein levels: Neither Herceptin™ nor GW572016 reduced
[2]
  baseline p-Erk levels: relatively little change
[3]; HN5, 10 μg/ml, 72 h
  p-Erk1/2 levels compared with untreated controls: little effect
[3]; HN5, 72 h, GW572016 0.5 or 1 μM, Herceptin 10 μg/ml
  total Erk1/2 steady state protein levels: Neither Herceptin™ nor GW572016 reduced
